Data from PMC4645461, “Increased food intake with oxyntomodulin analogues” (Peptides, 2015).

By UniProt entry, the sequences of proteins in these tests, tags left out. Residues count along the entry.
UniProt P30082, 27-485: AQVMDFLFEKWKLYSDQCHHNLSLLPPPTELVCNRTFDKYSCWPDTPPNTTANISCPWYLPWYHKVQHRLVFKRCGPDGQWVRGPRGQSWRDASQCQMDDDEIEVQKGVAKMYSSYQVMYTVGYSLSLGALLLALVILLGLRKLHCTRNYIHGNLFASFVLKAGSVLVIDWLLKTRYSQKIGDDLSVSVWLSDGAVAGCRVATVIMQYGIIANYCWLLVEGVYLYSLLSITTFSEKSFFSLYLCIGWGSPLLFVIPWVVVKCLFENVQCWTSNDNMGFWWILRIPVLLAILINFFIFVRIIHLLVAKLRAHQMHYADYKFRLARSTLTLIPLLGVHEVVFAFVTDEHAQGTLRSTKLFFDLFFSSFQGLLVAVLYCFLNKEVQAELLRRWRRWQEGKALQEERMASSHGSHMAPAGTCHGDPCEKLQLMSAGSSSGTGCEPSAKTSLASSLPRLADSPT

Assays:
[1] = cited from earlier work; for half-life: no reference given
Text: The proglucagon peptides, for example, are susceptible to degradation by the enzyme dipetidylpeptidase-IV (DPPIV). […] With both OXM14 and ...

rat glucagon receptor = biological target: T1, rat glucagon receptor (Rattus norvegicus, UniProt P30082); experiment: cAMP accumulation, CHO-K1 cells over-expressing the rat glucagon receptor; type: cell-based; details: 30 min peptide stimulation at room temperature, serum free DMEM, 1 mM IBMX, cAMP by ELISA (405 nm), average EC50 of 3–5 independent experiments ± SEM, read-out: cAMP EC50 ± SEM, Rat Gcgr
T1 construct: host or cells: CHO-K1
Description: For cAMP studies, cells were seeded at a density of 150000 cells/ml in a 48 well plate (Nunc, VWR International Inc., Chicago, USA) and incubated for 24 h. Cells were serum starved for 1 h and then incubated for 30 mins at room temperature with a range of peptide concentrations diluted in serum free DMEM (Sigma–Aldrich, Dorset, UK) in the presence of 1 mM IBMX (3-isobutyl-1-methylxanthine, Sigma–Aldrich). […] EC50’s were calculated using Prism v5 (GraphPad Software Inc., San Diego, CA, USA). Concentrations were applied in duplicate or triplicate per experiment and each experiment repeated a minimum of 3 times.
All food and bodyweight data are presented as mean ± SEM. […] Differences in 0–7 days cumulative food intake and bodyweight data were analysed using one way ANOVA and post hoc tests with Dunnett’s or Bonferroni corrections for multiple comparisons (Prism v5, GraphPad Software Inc. San Diego, CA, USA). cAMP EC50’s were calculated using a sigmoidal dose response curve and non-linear regression (Prism v5). […] In all cases P < 0.05 was considered statistically significant.

Substance | half-life [1] | half-life of native oxyntomodulin ([1]; ref [24]) | EC50 (rat glucagon receptor) [µM]
oxyntomodulin [OXM] | short half-lives | very short half-life | 
GLP-1(7-36NH2) |  |  | > 1
Exendin-4 | longer half-life |  | 
